## AlphaSeq binding of Ab-95 light chain variants to a spike HR2 peptide

The target is the same throughout: PDVDLGDISGINAS, from the HR2 region of SARS-CoV-2 spike.

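The parent was found by panning a naive human phage display library on the peptide. In library AAYL52, one, two or three CDR residues were substituted; doubles and triples were drawn at random. The scFvs were displayed on barcoded MATa yeast, the peptide on MATalpha yeast. The frequency of each diploid, read from paired DNA barcodes, reflects how well the two displayed proteins bind. A regression on co-assayed BCL2-family reference pairs converts the normalised counts of each replicate to an apparent Kd. The assay was run in three technical replicates.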

The variants keep the heavy chain, the linker and the frameworks of Ab-95 (scFv order VH, the linker GGGGSGGGGSGGGGS, VL).
VH: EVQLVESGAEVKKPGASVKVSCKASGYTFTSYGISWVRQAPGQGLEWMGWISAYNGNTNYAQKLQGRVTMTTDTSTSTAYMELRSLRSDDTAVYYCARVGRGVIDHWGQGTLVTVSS
VL: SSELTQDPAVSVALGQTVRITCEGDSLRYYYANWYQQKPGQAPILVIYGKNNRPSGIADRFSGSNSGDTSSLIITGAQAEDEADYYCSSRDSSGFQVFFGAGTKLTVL

The parent's light chain CDRs are EGDSLRYYYAN, GKNNRPS, SSRDSSGFQVF; each variant's own CDRs replace them letter for letter.
The read-out is the apparent dissociation constant on a log10 scale (nM): the lower, the stronger.
"nd" marks a missing value. The strain was present, yet no cells mated with the target were sequenced in that replicate, which points to weak or no binding.
For reference, the parent read 2.31 as the reference entry and 2.25 as a member of this library.
Background: pairings of library AAYL52 with three empty control strains gave a value in 28% of cases (median 3.91, 5th percentile 2.90). Values in that range, when seen in few replicates, are hard to tell from nonspecific mating. The control count says in how many pairings with the empty strains this scFv gave a signal, with their mean in brackets.

CDR-L1,CDR-L2,CDR-L3,log10 Kd (nM) by replicate,empty controls
EGDELRYYYAN,GKYNRPS,SSRDSSGFQVF,nd nd nd,1/9 (3.42)
EGDSLRYYYAN,GKNNRPS,SFRDSSVFEVF,4.05 nd nd,2/9 (3.63)
EGDSLRYYYQN,GKNNRPS,SSRDTSGFQFF,nd nd nd,1/9 (4.30)
EGDSYAYYYAN,GKNNRPS,SSRDSSWFQVF,4.46 3.93 3.84,3/9 (4.07)
EGDSLRYYYAN,EKNNRPS,LSRDSSGFQVF,3.53 3.69 nd,3/9 (4.50)
EGDSLRYYYAN,GKNNRPS,SSRKSHGFQVF,2.65 2.87 2.42,3/9 (4.02)
TGDSLRYYYAN,GENNRPS,SSRDSSGFQHF,nd 2.58 nd,0/9
EGDSLRYYHAN,GKNNRPS,SSRDSSIFQVF,2.58 2.80 2.13,5/9 (3.98)
EGDSLRYYYAN,GKNNRPS,SSRDSSGFQTF,1.22 1.17 0.96,2/9 (3.49)
EGDSLRCYYAW,GKNNRPS,SSRDSVGFQVF,nd nd nd,0/9
HGDSLRYYYAN,GKNNWPS,SSRDSSGFQVF,3.00 3.89 3.35,5/9 (4.60)
EGMSLQYYYAN,GKNDRPS,SSRDSSGFQVF,nd nd nd,1/9 (4.09)
EEDSLRNYYAN,GKNNRPS,SSRDSSGFQVF,nd nd nd,1/9 (3.15)
EGDSLRYYYAN,DKNNPVS,SSRDSSGFQVF,4.62 4.08 nd,5/9 (3.79)
EGDSLRYYYRN,GKNNRPS,LVRDSSGFQVF,nd nd nd,2/9 (3.98)
EGDSLRYYYAN,GKNNVPS,SNRDSGGFQVF,2.51 2.62 3.17,3/9 (3.94)
EGDSLRYYIAN,GKNNRPS,SSRDSSGFQVF,3.35 3.20 2.74,1/9 (4.64)
EGDSLRYYYAN,GKNNRPF,SSFDSSGFLVF,4.03 nd nd,4/9 (4.44)
EVDSLRYYYAN,GKNNRPS,YSQDSSGFQVF,nd 4.55 nd,2/9 (4.41)
EPDDLRYYYAN,GKNNRPS,SSRDSSGFQVF,3.07 3.01 3.03,4/9 (4.25)
EGDSLRYYYAN,GKNNRPS,DSRDSWGFQVF,1.99 3.07 2.29,0/9
CGDSLRYWYAN,GKQNRPS,SSRDSSGFQVF,2.98 2.90 3.56,3/9 (3.67)
EGDSLRYYYAN,GKHNRPS,SSRDSIGFQVF,4.59 5.73 nd,0/9
ENDSLWYYYAN,GKNVRPS,SSRDSSGFQVF,2.56 3.10 3.00,3/9 (3.84)
EGDSLRVYYAN,GKNNRPS,SSEDRSGFQVF,nd nd nd,2/9 (3.59)
EGDSLRQYYDN,GKNNYPS,SSRDSSGFQVF,4.72 nd nd,3/9 (3.41)
EGDSLRQYYAN,GKNNRPA,SSRDSSGFNVF,2.51 1.95 2.32,1/9 (3.32)
EGDYLRYYYEN,GKNNRPS,SSRDSSGFQVC,5.00 nd nd,1/9 (4.86)
EGDSKRYYYAN,GRNNRPS,SSRDSSGQQVF,5.43 4.38 4.37,1/9 (3.84)
LGDSLRYYYAN,GKNNRPS,SSCMSSGFQVF,5.53 nd 3.35,6/9 (4.12)
EGDSLRYEYAN,GKNNRPS,SSRDSSGLQDF,2.75 2.71 nd,0/9
EGDSLRYYYAN,GKRNRPS,CSRDSSTFQVF,4.34 nd nd,1/9 (2.73)

Excerpt, the first 3 entries:

CDR-L1,CDR-L2,CDR-L3,log10 Kd (nM) by replicate,empty controls
EGDELRYYYAN,GKYNRPS,SSRDSSGFQVF,nd nd nd,1/9 (3.42)
EGDSLRYYYAN,GKNNRPS,SFRDSSVFEVF,4.05 nd nd,2/9 (3.63)
EGDSLRYYYQN,GKNNRPS,SSRDTSGFQFF,nd nd nd,1/9 (4.30)

Source: Engelhart et al. 2022 (doi:10.1038/s41597-022-01779-4), MIT Lincoln Laboratory and A-Alpha Bio; data file from the FLAb repository.